Measurements published in US8455665B2, “3-phenoxymethylpyrrolidine compounds” (Theravance, Inc., priority 2009, dated 2013).

Protein sequences, listed by entry. Tags and fused reporters are not part of them.
UniProt P23975, whole entry: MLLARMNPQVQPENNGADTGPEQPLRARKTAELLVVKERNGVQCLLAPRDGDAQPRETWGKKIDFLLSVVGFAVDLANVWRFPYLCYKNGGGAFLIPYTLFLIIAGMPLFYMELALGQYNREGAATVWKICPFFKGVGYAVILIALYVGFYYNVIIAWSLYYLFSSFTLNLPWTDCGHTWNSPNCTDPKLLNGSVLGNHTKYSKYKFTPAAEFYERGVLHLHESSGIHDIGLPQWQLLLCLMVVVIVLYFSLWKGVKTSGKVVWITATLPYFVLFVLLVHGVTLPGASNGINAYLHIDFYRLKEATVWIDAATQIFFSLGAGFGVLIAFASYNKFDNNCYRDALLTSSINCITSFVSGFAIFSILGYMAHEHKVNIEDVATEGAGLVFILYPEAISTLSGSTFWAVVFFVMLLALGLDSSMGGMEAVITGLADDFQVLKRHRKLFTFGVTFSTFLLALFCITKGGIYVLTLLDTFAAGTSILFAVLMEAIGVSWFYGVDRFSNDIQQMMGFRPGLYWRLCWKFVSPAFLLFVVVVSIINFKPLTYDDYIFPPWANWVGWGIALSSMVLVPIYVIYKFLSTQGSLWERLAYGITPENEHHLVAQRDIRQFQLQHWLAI
UniProt P31645, whole entry: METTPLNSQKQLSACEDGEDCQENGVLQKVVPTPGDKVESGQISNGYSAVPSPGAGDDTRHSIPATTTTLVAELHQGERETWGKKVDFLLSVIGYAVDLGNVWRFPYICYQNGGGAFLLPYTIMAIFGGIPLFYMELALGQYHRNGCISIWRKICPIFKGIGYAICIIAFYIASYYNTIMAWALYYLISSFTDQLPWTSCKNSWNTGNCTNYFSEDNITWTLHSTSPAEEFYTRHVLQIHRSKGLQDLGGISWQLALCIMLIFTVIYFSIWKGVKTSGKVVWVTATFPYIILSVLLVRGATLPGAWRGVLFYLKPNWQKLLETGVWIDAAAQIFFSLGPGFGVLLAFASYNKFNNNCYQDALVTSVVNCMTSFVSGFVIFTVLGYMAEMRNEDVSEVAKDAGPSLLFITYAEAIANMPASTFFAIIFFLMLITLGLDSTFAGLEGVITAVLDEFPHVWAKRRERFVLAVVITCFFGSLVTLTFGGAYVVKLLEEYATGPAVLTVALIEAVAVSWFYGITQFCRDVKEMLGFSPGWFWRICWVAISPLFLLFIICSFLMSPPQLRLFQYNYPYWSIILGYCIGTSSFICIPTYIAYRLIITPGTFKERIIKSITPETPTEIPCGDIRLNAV

What was measured:
NET = NET (Homo sapiens, UniProt P23975); test: hNET membrane radioligand binding assay (3H-nisoxetine); details: hNET membranes (HEK-293), 1.0 nM 3H-nisoxetine; tested form: TFA
SERT = SERT (Homo sapiens, UniProt P31645); test: hSERT membrane radioligand binding assay (3H-citalopram); details: hSERT membranes (HEK-293), 1.0 nM 3H-citalopram; tested form: TFA

NET pKi (NET): ≧7.0
SERT pKi (SERT): ≧8.0
SMILES: CSCCC(Oc1ccc(Cl)cc1C(F)(F)F)C1CCNC1 (centres unmarked)
